The values below come from patent US20230337678A1, “NITRIC OXIDE-RELEASING ANTIBACTERIAL COMPOUNDS, FORMULATIONS, AND METHODS PERTAINING THERETO” (KNOW BIO, LLC, priority 2020, published 2023).

The conditions of the data set: 2 moles of NO per mole, single diazeniumdiolate group.

Turning to `[O-]/[N+](=N\O)C(/[N+]([O-])=N/O)/[N+]([O-])=N/O`, the “theoretical NO load / yield” value is 7.6 μmol NO/mg.
